Laboratory results: patent US20240156959A1, “COMBINATION THERAPY FOR THE TREATMENT OF CANCER COMPRISING AN ANTl-EGFR ANTIBODY AND AN AXL-INHIBITOR” (Yeda Research and Development Co. Ltd., priority 2021, published 2024)

Tested on: PC9 cells
Experiment: PC9 xenograft tumor growth and relapse
Format: in vivo, CD1-nu/nu mice
Conditions: treatments discontinued on day 30; antibodies 0.2 mg/mouse/injection once every three days, osimertinib 5 mg/kg/day
Text: FIGS. 1A-G: Upregulation of AXL is essential for resistance and tolerance. (A) PC9 cells (2×10^6) were subcutaneously implanted in nude mice. […] Tumor volumes are presented (average ±SEM). (B) 3-4 mice from each group presented in A were euthanized when tumors reached 1,500 mm 3 Tumors were extracted and subjected to immunoblotting. Tubulin (TUB) served as the loading control. (C and D) AXL-overexpressing (C) and AXL-knockout PC9 cells (2×10^6, D), along with naïve cells, were subcutaneously implanted in mice. When tumors became palpable, mice were randomized and treated as in A. (E) Data were re-analyzed for AXL mRNA levels in 23 patients with EGFR+NSCLC. Specimens (total=53) were collected at several time points, prior to and after treatment with osimertinib. (F and G) AXL-overexpressing (OX; F) or AXL-knockout PC9 cells (KO; G), along with naïve cells, were untreated or treated with TKIs (1 or 3 μM). Drugs and media were refreshed on day 3 and 6. On day 9, remaining cells (DTPs) were fixed, stained and quantified. […] Tumor volume was estimated using vernier caliper measurements of the longest axis, a/mm, and the perpendicular axis, b/mm Volumes were calculated in accordance with the equation V=(4 π/3)×(a/2)^2×(b/2). […] Mice were sacrificed four weeks after injection, and the lungs were analyzed. Lung images were acquired, and the numbers of micro-metastases or nodules were quantified.

cetuximab
tumor relapses after treatment: better delayed relapses
